Patent US4588580A
Some compounds may have been tested in ways that are not shown here.

Tests used:
[1] = permeability of normal human skin to fentanyl
[2] = drug binding in skin (fentanyl binding sites); conditions: variation between individuals and sites; base form
[3] = solubility, saturation concentration and activity of drug in the reservoir

## CCC(=O)N(c1ccccc1)C1CCN(CCc2ccccc2)CC1
[1]; fentanyl citrate
  skin permeability (in words): such a low skin permeability that it is not at all suitable for transdermal delivery even with the use of permeation enhancers
[1]; normal human skin, fentanyl base
  skin permeability, mean ± S.D.: approximately 4±1.8 μg/cm^2 /hr
[1]; normal skin, most skin
  skin permeability, most skin: 2-5 μg/cm^2 /hr
[2]
  amount of drug in skin binding sites to be saturated before significant absorption: 25-75 μg/cm^2
[3]; ethanol vs water
  solubility in ethanol versus water (in words): substantially more soluble in ethanol than water
[3]; fentanyl in 30% ethanol
  saturation concentration: 8.8 mg/g
